Antibody variant affinities, Ab-14 light chain, assay 1

Reference: Engelhart et al. 2022, doi:10.1038/s41597-022-01779-4. File: FLAb, binding data.

All variants were tested on one target, the spike HR2 peptide PDVDLGDISGINAS (SARS-CoV-2).

Parent scFv Ab-14: VH joined to VL by the linker GGGGSGGGGSGGGGS. Changes lie in the light chain CDRs alone.
VH: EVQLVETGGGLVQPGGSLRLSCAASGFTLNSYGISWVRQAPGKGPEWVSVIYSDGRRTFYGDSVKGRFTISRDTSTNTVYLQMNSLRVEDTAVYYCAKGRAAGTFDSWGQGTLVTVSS
VL: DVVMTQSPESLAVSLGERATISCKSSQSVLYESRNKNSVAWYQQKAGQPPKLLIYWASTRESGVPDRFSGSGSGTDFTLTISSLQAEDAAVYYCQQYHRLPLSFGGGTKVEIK

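The parent was found by panning a naive human phage display library on the peptide. In library AAYL50, one, two or three CDR residues were substituted; doubles and triples were drawn at random. Affinity was read by AlphaSeq, a pooled yeast mating assay with surface-displayed partners. Mating (16 h, 30 °C) was followed by selection of diploids and sequencing of their barcodes. Read counts were normalised to the haploid input and turned into Kd by a linear fit to BCL2-family pairs of known affinity, for each replicate. There are three technical replicates.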

Substitutions are numbered in sequence along the VL above, starting at 1 (not Kabat).
Kd is apparent (estimated from mating counts) and averaged on the log scale over replicates with a signal. Smaller is tighter.
Where no diploid with the target was found in any replicate, the entry reads "not detected": below detection, most likely a poor binder, though not proof of it.

changes,apparent Kd,detected,signal with controls
V29K+N35Y+S58G,2.8 µM,1/3,1/9
K24F+N35V+S58Y,5.6 µM,1/3,3/9
S25N+L30I+Y31D,14 nM,3/3,2/9
K24F+S33C,not detected,0/3,0/9
Y31I+N35Y+N37F,27 µM,3/3,0/9
K36S+A57K+R60M,not detected,0/3,0/9
E32F+R60E+Y97F,not detected,0/3,2/9
K24R+Y31G+N37V,32 nM,3/3,0/9
S28Q+E61D+L100K,not detected,0/3,0/9
Q27P+Y31M+W56C,4.7 nM,3/3,3/9
R34C+S58F+R60G,320 nM,2/3,0/9
S38L+R99G,not detected,0/3,1/9
S28H+Y97H+H98W,900 nM,3/3,3/9
L30K+K36L+N37K,120 nM,3/3,0/9
A57G+S62Y,32 nM,3/3,4/9
N35Y+A40I+P101L,3.6 µM,1/3,0/9
S28M+Y31F+S62V,9.5 nM,3/3,0/9
S38T+A40Q+L102I,not detected,0/3,0/9
V39T+Q95M+S103C,not detected,0/3,0/9
R34Q+L100E+L102Y,not detected,0/3,1/9
E32K+S33L+N37T,not detected,0/3,0/9
K24Y+S58R+S62Q,310 nM,3/3,3/9
L30W+N37D+A57R,1.8 µM,1/3,0/9
Y31Q+S58L+S103H,6.7 µM,1/3,0/9
Y31V+S58A+L100F,16 nM,3/3,3/9
N37W+S103C,1.6 µM,3/3,4/9
Q95I+H98C+R99G,6.2 µM,1/3,4/9
S28P+S33A+N37C,400 nM,3/3,5/9
R34E+Q96A+H98E,1.4 nM,3/3,0/9
Q27Y+K36C+A57V,1.2 µM,3/3,4/9
S28R+N35S+S58H,33 µM,1/3,1/9
N37E+S58W+T59D,30 µM,1/3,6/9
L30A+S38L+V39S,not detected,0/3,0/9
Q27L+N35F+S103I,620 nM,3/3,3/9
E32S+Q95S+R99Y,930 nM,3/3,2/9
S38I+W56G+A57Y,1.1 µM,2/3,1/9
N35Y+W56F+R99N,310 nM,2/3,0/9
E32P+K36F+S58T,11 nM,3/3,1/9
S33K+N35H+W56S,81 nM,3/3,2/9
K24N+R60W+E61A,not detected,0/3,3/9
Q27W+K36R+S62C,130 nM,3/3,4/9
V29F+P101V,37 nM,3/3,3/9
K24F+A40Q,not detected,0/3,0/9
S26N+Y31V+S58C,390 nM,1/3,0/9
A40T+Q95S+L100V,not detected,0/3,0/9
S26C+W56N+T59Q,3.7 nM,3/3,6/9
S28C+R60P+E61Q,1.7 µM,1/3,0/9
S26M+Y31D+S58T,2.4 nM,3/3,3/9
A40S+S58M+L100R,not detected,0/3,4/9
L30Q+E61V+Y97D,50 µM,2/3,1/9
S58Y+E61A,54 nM,3/3,0/9
S38W+S58V+L100T,not detected,0/3,0/9
T59W+P101E,not detected,0/3,0/9
E32S+R60G+R99T,16 µM,1/3,0/9
E32N+R60F+L102G,7.9 µM,3/3,7/9
Q27M+N35D+L100K,not detected,0/3,0/9
V39F+Y97W,9.9 µM,1/3,2/9
L30A+S33H+P101H,63 nM,3/3,2/9

A selection of 4 entries from above:

{"changes": "N35Y+A40I+P101L", "apparent Kd": "3.6 µM", "detected": "1/3", "signal with controls": "0/9"}
{"changes": "Q95I+H98C+R99G", "apparent Kd": "6.2 µM", "detected": "1/3", "signal with controls": "4/9"}
{"changes": "S38L+R99G", "apparent Kd": "not detected", "detected": "0/3", "signal with controls": "1/9"}
{"changes": "R34C+S58F+R60G", "apparent Kd": "320 nM", "detected": "2/3", "signal with controls": "0/9"}

Parent in this assay: reference entry 4.4 nM, copy in this library 48 nM.
Nonspecific signal, from three strains lacking the peptide, appeared in 18% of pairings of library AAYL50, centred on 15 µM (5% of these signals below 970 nM); values are not corrected for it. The control count says in how many pairings with the empty strains this scFv gave a signal.